Measurements: article PMC12406200, “Structural Basis of PPARγ-Mediated Transcriptional Repression by the Covalent Inverse Agonist FX-909” (Journal of Medicinal Chemistry, 2025)

Amino acid sequences for entries named in this document (tags omitted). Residues count along the entry.
UniProt P37231, 231-505: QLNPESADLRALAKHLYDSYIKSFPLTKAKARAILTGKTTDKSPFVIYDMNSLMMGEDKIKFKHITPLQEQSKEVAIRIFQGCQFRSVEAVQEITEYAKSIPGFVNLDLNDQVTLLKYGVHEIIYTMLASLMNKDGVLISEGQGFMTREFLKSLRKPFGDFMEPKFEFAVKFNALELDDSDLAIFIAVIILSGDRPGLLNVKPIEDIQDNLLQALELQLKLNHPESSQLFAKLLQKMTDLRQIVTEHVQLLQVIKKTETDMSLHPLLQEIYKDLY

Tests used:
[1] = target: T1, full-length human PPARγ (isoform 2) (Homo sapiens, UniProt P37231); assay: Transcriptional reporter assay (3xPPRE-luciferase) in HEK293T cells transfected with full-length PPARγ; type: cell-based; conditions: 3xPPRE-luciferase reporter
T1 construct: full-length human PPARγ (isoform 2) expression plasmid; expressed in transfected cells; host or cells: HEK293T (ATCC #CRL-11268)
Experimental: 1 Pharmacological PPARγ ligand set used in this study. (A) Chemical structures and pharmacological properties of the ligands. […] (B) Transcriptional reporter assay performed in HEK293T cells transfected with a full-length PPARγ expression plasmid and a 3xPPRE-luciferase reporter plasmid. Data were normalized to cells treated with DMSO control, represented as mean ± s.d.
After an 18 h incubation, cells were transferred to white 384-well cell culture plates (Thermo Fisher Scientific) at 10,000 cells/well in 20 μL total volume/well. After a 4 h incubation, cells were treated in quadruplicate with 20 μL of either vehicle control (1.5% DMSO in DMEM) or a 3-fold serial dilution of ligands (1 μM highest ligand concentration). After a final 18 h incubation, cells were harvested with 20 μL of Britelite Plus (PerkinElmer), and luminescence was measured on a BioTek Synergy Neo multimode plate reader. Data were plotted in GraphPad Prism as luminescence vs ligand concentration as mean ± s.d. (n = 4) and fit to a three-parameter sigmoidal dose–response curve equation.

[2] = target: T2, PPARγ LBD / NCoR1 corepressor peptide (Homo sapiens, UniProt P37231); assay: TR-FRET coregulator interaction assay, NCoR1 corepressor peptide; type: biochemical
T2 construct: residues 203–477 (isoform 1 numbering) with a TEV-cleavable N-terminal hexa-his-tag; made in house; host or cells: Escherichia coli BL21(DE3), pET46 plasmid
Excerpt: (§1) We next characterized the ligand set using biochemical assays that report on ligand-dependent changes in the interaction between PPARγ LBD and FITC-labeled peptides derived from NR coregulator proteins that contribute to PPARγ-mediated transcription in cells, including the TRAP220/MED1 coactivator and NCoR1 corepressor. We used time-resolved fluorescence resonance energy transfer (TR-FRET) assays to determine relative ligand potency (or covalent reactivity) and efficacy (via increased or decreased TR-FRET ratio values). […] We performed fluorescence polarization (FP) assays to directly measure binding affinities between the PPARγ LBD and coregulator peptides.
(§2) 2 Biochemical coregulator profiling data. Time-resolved fluorescence resonance energy transfer (TR-FRET) coregulator interaction assay performed with (A) the NCoR1 corepressor peptide or (B) the TRAP220/MED1 coactivator peptide in the presence of the indicated ligands. Data represent mean ± s.e.m. […] Fluorescence polarization (FP) binding assay performed with (C) NCoR1 corepressor peptide or (D) TRAP220/MED1 coactivator peptide in the presence of the indicated ligands. Data represent mean ± s.e.m. […]
(§3) Time-resolved fluorescence resonance energy transfer (TR-FRET) coregulator peptide interaction assays were performed in low-volume black 384-well plates (Greiner) using a 23 μL final well volume. […]

[3] = target: T3, PPARγ LBD / TRAP220/MED1 coactivator peptide (Homo sapiens, UniProt P37231); assay: TR-FRET coregulator interaction assay, TRAP220/MED1 coactivator peptide; type: biochemical
T3 construct: residues 203–477 (isoform 1 numbering) with a TEV-cleavable N-terminal hexa-his-tag; made in house; host or cells: Escherichia coli BL21(DE3), pET46 plasmid
Excerpt: as §1, §2, §3

CN(CCOc1ccc(CC2SC(=O)NC2=O)cc1)c1ccccn1 (stereo not drawn) [rosiglitazone]
effect on PPARγ-mediated transcription (in words) [1]: increased transcription
effect on NCoR1 corepressor peptide interaction, TR-FRET efficacy (in words) [2]: decreased NCoR1 corepressor interaction
effect on TRAP220/MED1 coactivator peptide interaction, TR-FRET efficacy (in words) [3]: increased TRAP220/MED1 coactivator interaction
